Literature values, collected in publication PMC7242566, “The Three Lipocalins of Egg-White: Only Ex-FABP Inhibits Siderophore-Dependent Iron Sequestration by Salmonella Enteritidis” (Frontiers in Microbiology, 2020).

Protein sequences, listed by entry. Tags and fused reporters are not part of them. Residues count along the entry.
UniProt P21760, 21-178: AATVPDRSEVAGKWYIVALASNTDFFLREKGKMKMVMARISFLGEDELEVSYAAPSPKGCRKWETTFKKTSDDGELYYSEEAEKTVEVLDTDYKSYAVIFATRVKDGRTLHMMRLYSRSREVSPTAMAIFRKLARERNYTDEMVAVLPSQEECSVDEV

Target: T1, Ex-FABP (Gallus gallus, UniProt P21760)
T1 construct: made in house; host or cells: E. coli K-12 BW25113 ΔentB::kan (JW0587) (λDE3), pET21a, periplasmic secretion
Details: protein printed as Ex-FABP; ref Fischbach et al., 2006; cited from earlier work

salmochelin [apo-Sal (or DGE)]
Kd: Under threshold
